From patent publication US20130289023A1, “METHOD FOR TREATING BRAIN TUMOR” (priority 2012, published 2013)

System: GBM8401 cells
Assay: MTT cell viability assay in GBM8401
Settings: 10 μM, 72 hr
Procedure: To examine the cytotoxicity of anti-psychotic drugs on malignant glioma, GBM8401 cells were treated with 21 anti-psychotic drugs at 10 μM, respectively, for 72 hr.

## thioridazine
  cytotoxicity compared with the other anti-psychotic drugs: more effective in cytotoxicity
